Data as given in ChEMBL document CHEMBL5055640, “Discovery of Novel Acetamide-Based Heme Oxygenase-1 Inhibitors with Potent In Vitro Antiproliferative Activity” (J Med Chem, 2021).

Species on record: Rattus norvegicus
Assay: Selectivity index, ratio of IC50 for inhibition of Sprague-Dawley rat brain microsome HO-2 to IC50 for inhibition of Sprague-Dawley rat spleen microsome HO-1

For `Nc1ccc(SC[C@@H]2CO[C@](CCc3ccc(Cl)cc3)(Cn3ccnc3)O2)cc1`, which Selectivity Index is on record?
Its Selectivity Index is 4.6.
